Target: acetylcholine esterase (Homo sapiens, UniProt P06276)
Assay: Inhibition of acetylcholine esterase, modified method of Ellmann, human serum
Type: biochemical
Conditions: read-out: IC50 in μMol; ACHE inhibition; human serum from a pool of 10 test subjects; 37° C., pH 7.8; compounds of general formula (I)

The chains behind the UniProt entries cited, without tags or fusion partners. Residues count along the entry.
UniProt P06276, 29-602 limits assumed: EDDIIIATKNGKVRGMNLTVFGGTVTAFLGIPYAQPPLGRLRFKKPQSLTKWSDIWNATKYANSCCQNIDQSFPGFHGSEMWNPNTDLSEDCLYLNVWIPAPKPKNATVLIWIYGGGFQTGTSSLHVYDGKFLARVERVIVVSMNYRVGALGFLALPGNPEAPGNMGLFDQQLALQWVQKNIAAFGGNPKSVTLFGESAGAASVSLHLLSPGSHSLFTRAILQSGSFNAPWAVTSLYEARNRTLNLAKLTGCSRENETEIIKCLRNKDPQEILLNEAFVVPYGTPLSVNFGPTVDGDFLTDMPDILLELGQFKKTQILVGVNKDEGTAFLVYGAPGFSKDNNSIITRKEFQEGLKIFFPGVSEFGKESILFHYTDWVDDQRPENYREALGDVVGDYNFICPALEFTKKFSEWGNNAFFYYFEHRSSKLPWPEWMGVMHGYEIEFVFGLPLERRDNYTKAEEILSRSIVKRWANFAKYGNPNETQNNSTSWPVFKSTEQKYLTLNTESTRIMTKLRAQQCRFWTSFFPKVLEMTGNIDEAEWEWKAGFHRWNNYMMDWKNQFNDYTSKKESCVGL

COc1ccc2c3c1O[C@H]1C[C@H](OC(=O)[C@H](Cc4ccccc4)NC(=O)OC(C)(C)C)C=C[C@@]31CCN(C)C2
IC50: 100 µM
